From ChEMBL document CHEMBL4732229

The chains behind the UniProt entries cited, without tags or fusion partners. Where a name states a change or a piece, a line headed by the entry shows the natural chain unless it says otherwise.
UniProt P22303: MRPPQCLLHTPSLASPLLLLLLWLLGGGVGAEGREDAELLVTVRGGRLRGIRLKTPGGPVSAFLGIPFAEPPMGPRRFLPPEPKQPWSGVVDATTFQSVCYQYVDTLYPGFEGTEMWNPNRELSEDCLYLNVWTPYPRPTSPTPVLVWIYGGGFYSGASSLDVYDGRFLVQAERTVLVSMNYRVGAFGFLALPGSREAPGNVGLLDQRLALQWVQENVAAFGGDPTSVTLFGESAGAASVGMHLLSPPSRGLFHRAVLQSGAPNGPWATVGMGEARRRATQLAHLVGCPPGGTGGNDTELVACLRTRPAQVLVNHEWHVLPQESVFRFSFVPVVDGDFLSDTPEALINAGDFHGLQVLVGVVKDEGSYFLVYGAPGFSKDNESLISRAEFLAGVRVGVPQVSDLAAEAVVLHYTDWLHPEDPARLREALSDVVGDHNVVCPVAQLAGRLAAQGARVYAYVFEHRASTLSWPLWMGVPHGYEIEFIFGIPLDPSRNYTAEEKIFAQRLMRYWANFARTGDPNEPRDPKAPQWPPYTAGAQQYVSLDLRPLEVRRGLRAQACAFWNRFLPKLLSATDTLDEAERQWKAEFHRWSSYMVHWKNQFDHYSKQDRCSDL

Key:
[1] = target: Acetylcholinesterase (Homo sapiens) (UniProt P22303); assay: Reactivation of sarin-inhibited human AChE assessed as second order rate constant incubated for 30 mins by Ellman's method; settings: filed as activator
[2] = target: Acetylcholinesterase (Homo sapiens) (UniProt P22303); assay: Reactivation of tabun-inhibited human AChE assessed as second order rate constant incubated for 30 mins by Ellman's method; settings: filed as activator

SMILES | Kr [1] [M⁻¹ s⁻¹] | Kr [2] [M⁻¹ s⁻¹]
Cc1cc(/C=N/O)c(O)c(CN2CCN(c3ccncc3)CC2)c1 | 14.5 | –
O/N=C/c1cc(Cl)cc(CN2CCN(c3ccncc3)CC2)c1O | 15 | –
Cc1cc(/C=N/O)c(O)c(CNc2ccc(Cn3cncn3)cc2)c1 | – | 2
